# Data taken from paper PMC11800946.
# Assays:
# [1] = target: human α-synuclein (human) (UniProt P37840)
# [2] = target: human α-synuclein (human) (UniProt P37840); remark: listed apart in the source
substance,measurement,setting,value
mouse α-synuclein (from UniProt O55042 1-140) (natural protein),"ELISA of α-syn aggregates in lysates of human-PAC-wt-SNCA+/+/Snca−/− neurons after 14 days with PFFs, against human PFFs",[1],2.5 times
same,"pS129–α-syn pathology in human iPSC-derived dopaminergic neurons, Alexa Fluor 568 PFFs 10 μg/ml, 7 days, against human PFFs",[2],> 2 fold
